# Ab-14 light chain CDR variants: yeast mating affinities

The measurements come from Li et al. 2023 (doi:10.1038/s41467-023-39022-2) through the FLAb antibody collection.

Target: peptide PDVDLGDISGINAS, taken from heptad repeat 2 (HR2) of SARS-CoV-2 spike.

Parent scFv Ab-14: VH joined to VL by a (GGGGS)3 linker. Changes lie in the light chain CDRs alone.
VH: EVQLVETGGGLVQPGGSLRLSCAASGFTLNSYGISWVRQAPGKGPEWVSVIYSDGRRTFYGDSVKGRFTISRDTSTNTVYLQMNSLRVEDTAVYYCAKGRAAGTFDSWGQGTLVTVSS
VL: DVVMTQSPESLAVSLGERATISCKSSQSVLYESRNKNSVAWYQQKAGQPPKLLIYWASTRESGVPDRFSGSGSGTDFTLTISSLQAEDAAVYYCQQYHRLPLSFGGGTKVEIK

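Designed CDR sequences, proposed from the first random library and measured here. Their group label is 14L_GP_Gen (GP: Gaussian process model; Gen: genetic algorithm; a sequence that several methods proposed may carry one label only). AlphaSeq pools MATa yeast showing the antibodies with MATalpha yeast showing the peptide. Mating (16 h, 30 °C) was followed by selection of diploids and sequencing of their barcodes. Read counts were normalised to the haploid input and turned into Kd by a linear fit to BCL2-family pairs of known affinity, for each replicate. There are six technical replicates.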

Each variant is given by its three light chain CDRs, as the data file delimits them; those of the parent are KSSQSVLYESRNKNSVA, WASTRES, QQYHRLPLS.
The read-out is the apparent dissociation constant on a log10 scale (nM): the lower, the stronger.
Replicates are averaged; those with no signal do not enter the mean.
Background: pairings of all light chain designs with three empty control strains gave a value in 4% of cases (median 2.64, 5th percentile 1.59). Values in that range, when seen in few replicates, are hard to tell from nonspecific mating. For each scFv, signals with the empty controls are counted beside the result, with their mean in brackets.
In the paper, a design with two or fewer of six values counts as a poor binder.
Of ten entries with the parent sequence, four were seen in most replicates (averages 0.34 to 2.37), three in one and three in none, so single entries are noisy.
A sequence measured in both rounds can read differently, since the two assays cover different ranges.

CDR-L1 | CDR-L2 | CDR-L3 | replicates, log10 nM | log10 Kd (nM), mean | control signals
KLSQSELYESRNKNSVA | EASCRES | QQYHRLPLS | 0.68 1.38 0.98 1.56 0.85 0.95 | 1.07 | 1 of 18 (2.14)
KVSQSGLYESRNKNSVA | NASTRES | QQYHRLPLS | 0.47 0.52 0.47 0.34 0.29 0.54 | 0.44 | 1 of 18 (3.45)
KVDQSWLYESRNKNSVA | NASTRES | QQYHRLPLS | -0.09 0.16 -0.14 -0.14 -0.11 0.06 | -0.04 | 0 of 18
KLSQSQLYESRNKNSVA | HASTRES | QDYHRLPLS | 0.17 -0.21 -0.02 -0.32 -0.07 0.10 | -0.06 | 2 of 18 (3.68)
KLEQSQLYESRNKNSVA | NASLRES | QQYHRLPLS | 0.19 0.87 0.48 0.44 0.32 0.32 | 0.43 | 2 of 18 (2.56)
KVSQSVLYEQRNKNSVA | EASTRMS | QQYHRLPLS | -0.35 -0.07 0.11 -0.43 -0.13 0.25 | -0.10 | 0 of 18
KVQQSWLYESRNKNSVA | NASTRLS | QQYHRLPLS | 0.36 0.43 0.28 0.27 0.57 0.44 | 0.39 | 1 of 18 (1.89)
KLSQSMLYESRNKNSVA | DASQRES | QQYHRLPLS | -0.20 0.07 -0.30 -0.25 -0.17 -0.01 | -0.14 | 0 of 18
KLPQSMLYESRNKNSVA | SASTRES | QQYHRLPLS | -0.36 -0.50 -0.59 -0.60 -0.43 -0.34 | -0.47 | 1 of 18 (1.48)
KVSQSELYESRNKNSVA | EASTRES | QSYHRLPLS | 0.32 0.03 0.11 0.03 0.19 0.44 | 0.19 | 0 of 18
YLSQSVLYESRNKNSVA | GASTRES | QQYHRLPLS | -0.01 -0.36 -0.44 -0.47 -0.21 -0.23 | -0.29 | 1 of 18 (2.46)
KLSQSVEYESRMKNSVA | NASQRES | QQYHRLPLS | 0.28 -0.02 0.46 0.49 0.32 0.50 | 0.34 | 1 of 18 (2.62)
HLSQSVQYESRNKNSVA | NASTRES | QQYHRLPLS | 0.00 -0.09 0.01 -0.32 -0.10 0.07 | -0.07 | 1 of 18 (2.29)
KLSQSWLYESRNKNSVA | NASTRES | QSYHRLPLS | 0.54 0.44 0.42 0.22 -0.04 0.30 | 0.31 | 0 of 18
KFQQSQLYESRNKNSVA | NASQRES | QQYHRLPLS | 1.16 0.97 0.86 0.54 0.82 0.67 | 0.84 | 1 of 18 (2.53)
KVSQSWLYESRNKNSVA | QASQRES | QQYHRLPLS | 0.09 0.00 0.22 -0.36 -0.34 -0.14 | -0.09 | 0 of 18
KVSQSMLYESRNKNAVA | EASTRES | QQYHRLPLS | -0.16 -0.40 -0.42 -0.52 -0.39 -0.23 | -0.35 | 1 of 18 (2.54)
KVSQSHLYESRNKNNVA | EASTRES | QQYHRLPLS | -0.21 -0.51 -0.51 -0.49 -0.51 -0.35 | -0.43 | 0 of 18
KLSQSMLYESRNKNSVA | NASTREV | QQYHRLPLS | -0.11 -0.16 -0.19 -0.30 -0.22 -0.10 | -0.18 | 0 of 18
KVSQSFLYEDRNKNSVA | NASTRES | QQYHRLPLS | -0.25 -0.28 -0.33 -0.48 -0.48 -0.28 | -0.35 | 2 of 18 (3.70)
KLEQSWLYESRNKNSVA | NASQRES | QQYHRLPLS | -0.16 -0.38 -0.50 -0.47 -0.39 -0.16 | -0.34 | 2 of 18 (3.06)
KLSQSWLYESRNKNSVA | NASQREQ | QDYHRLPLS | -0.05 -0.18 -0.22 -0.13 -0.41 -0.17 | -0.19 | 1 of 18 (2.14)
KLSQSELYESRMKNSVA | NASQRLS | QQYHRLPLS | -0.02 -0.12 -0.02 -0.30 -0.19 0.16 | -0.08 | 2 of 18 (2.99)
KLSQSVMYESRNPNSVA | NASTRES | QQYHRLPLS | -0.21 -0.40 -0.49 -0.51 -0.50 -0.28 | -0.40 | 0 of 18
KLSQSNLYESRNKNSVA | HASTRCS | QQYHRLPLS | 0.75 0.36 0.01 -0.04 0.78 1.06 | 0.49 | 1 of 18 (2.77)
KLQQSDLYESRNKNSVA | EASTRES | QQYHRLPLS | -0.03 -0.07 -0.14 -0.32 -0.21 0.00 | -0.13 | 1 of 18 (2.63)
VLSQSVLYESRNKNSVA | NASQRLS | QQYHRLPLS | 0.30 0.09 0.08 0.01 -0.01 0.33 | 0.14 | 2 of 18 (2.48)
KLDQSMLYESRNKNSVA | NASTRES | QQYHRLPLS | -0.20 -0.24 -0.45 0.04 0.02 0.15 | -0.11 | 0 of 18
YISQSVLYESRNKNSVA | NASTRES | QQYHRLPLS | -0.09 -0.09 -0.17 -0.24 -0.14 -0.04 | -0.13 | 0 of 18
KLSQSVLPESRNKNSVA | NASTRES | QQYHRLPLS | 0.01 -0.06 -0.42 -0.39 -0.26 0.14 | -0.16 | 1 of 18 (4.14)
KLEWSQLYESRNKNSVA | NASTRES | QQYHRLPLS | 0.08 0.09 -0.03 -0.16 -0.06 0.10 | 0.00 | 2 of 18 (3.60)
KVSQSELYESRNKNSVA | NASTREQ | QQYHRLPLS | 0.31 -0.05 0.08 0.15 0.08 0.21 | 0.13 | 0 of 18
KLSQMNLYESRNKNSVA | NASTRES | QQYHRLPLS | -0.04 -0.12 -0.04 -0.32 -0.17 0.07 | -0.10 | 1 of 18 (2.53)
KLMQSELYESRNKNSVA | NASQRES | QQYHRLPLS | 0.04 -0.11 -0.16 -0.26 -0.20 -0.03 | -0.12 | 1 of 18 (2.92)

The first 2 entries again:

{"CDR-L1": "KLSQSELYESRNKNSVA", "CDR-L2": "EASCRES", "CDR-L3": "QQYHRLPLS", "replicates, log10 nM": "0.68 1.38 0.98 1.56 0.85 0.95", "log10 Kd (nM), mean": "1.07", "control signals": "1 of 18 (2.14)"}
{"CDR-L1": "KVSQSGLYESRNKNSVA", "CDR-L2": "NASTRES", "CDR-L3": "QQYHRLPLS", "replicates, log10 nM": "0.47 0.52 0.47 0.34 0.29 0.54", "log10 Kd (nM), mean": "0.44", "control signals": "1 of 18 (3.45)"}